Key:
HLA-A*0201 = HLA-A*0201 (Homo sapiens, UniProt P04439, D140Y/D185E/D98H/E176V/E277Q/G131W/G231S/I119V/I121R/I166T/I218V/L300P/L318F/N151K/N90K/P208A/P217A/Q86G/Q94H/R138H/R169H/T345S); assay: Peptide binding using T2 cells; conditions: half maximal binding of wild-type peptide relative to analog;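 also: Read-out is peptide-induced stabilization of HLA-A*0201 on the cell surface, reflecting mainly Kon at limiting peptide levels and both Kon and Koff at saturating levels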
[1] = test system: T cell lines against natural epitope SSX-241-49; assay: Cross-reactivity and functional avidity: IFN-gamma production by T cell lines raised against natural SSX-2 41-49; assay type: cell-based, HHD transgenic mice; conditions: T cells raised to native peptide tested on analogs; footnote * and unit not given;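 also: analogs presented ex vivo by competent APCs to T cells specific for the non-mutated epitope, scored by lowest activating concentration, peak cytokine effect and concentration at that peak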

Relative affinity (1/RA) (HLA-A*0201): 1.4
Structure (SMILES): CC[C@H](C)[C@H](NC(=O)[C@H](CCCCN)NC(=O)[C@H](CCC(=O)O)NC(=O)[C@H](CO)NC(=O)[C@@H](NC(=O)[C@@H](N)Cc1ccccc1)C(C)C)C(=O)N[C@@H](Cc1ccccc1)C(=O)N[C@@H](Cc1ccc(F)cc1)C(=O)N[C@H](C(=O)O)C(C)C [SSX2 41-49 (K41F, A42V, Y48(Phe-4F)), FVSEKIF(Phe-4F)V]
Cross-reactivity and fct avidity (native to analogs)* [1]: 10
